{"source": "patent US20230251260A1", "about": "“METHODS OF DETERMINING CANCER THERAPY” (YISSUM RESEARCH DEVELOPMENT COMPANY OF THE HEBREW …, priority 2020, published 2023)", "system": "4T1 cells", "experiment": "Survival assay (methylene blue) of irradiated 4T1 cells", "format": "cell-based, mouse", "details": "drugs with RT, beginning 2 days prior to RT until 6 days post-RT", "experimental": "Irradiation of parental cells: Cells were treated by single radiation with 5, 10, and 15 Gy doses of γ-rays of ^60Co by a radiotherapy unit (gamma cell 220) at a dose rate of 1.5 Gy/min.\n4T1, MDA-MB-231, MDA-MB-468 and Br45 cells were trypsinized and plated to reach optimal confluences next day by (70-80) % before irradiation treatment. The next day, 4T1 cells were irradiated using (5 and 15) Gy of γ-rays. Radiation doses were selected based on calibration experiments in which the survival rates after irradiation ranged from 40-50% of the cells. MDA-MB-231 and BR45 cells were treated with 10 Gy with the exception of MDA-MB-468 cells which were treated with 5 Gy. Afterwards, cells were grown under normal conditions for 24 h, 48 h and 6 days. At each indicated timepoint, cells were detached from the flask using Acutase and fixed using 2% paraformaldehyde for 30 min in ice. Labelling procedure of each condition performed on the day of the flow cytometry analysis as mentioned below.\nSurvival Analysis: Cells were seeded at 70% confluency and treated as needed for different timepoints. Cells were washed with PBS and fixed with 4% PFA for 10 min. at R.T. The fixed cells were stained with Methylene Blue (MB) for 1 hour at R.T., washed and air dried overnight. The color was extracted with 0.1M HCl for 1 hour at R.T. Absorbance was read at 630 nm.", "data": [{"substance": "trastuzumab [Herceptin]", "values": [{"measurement": "cell survival / sensitization of 4T1 cells to RT", "result": "significantly less effective in sensitizing the cells to RT"}]}]}
